For 1 compound, Ki results are on record in ChEMBL document CHEMBL1157594, “Synthesis and evaluation of a set of 4-phenylpiperidines and 4-phenylpiperazines as D2 receptor ligands and the discovery of the dopaminergic stabilizer 4-[3-(methylsulfonyl)phenyl]-1-propylpiperidine (huntexil, pridopidine, ACR16)” (J Med Chem, 2010).

The chains behind the UniProt entries cited, without tags or fusion partners.
UniProt P14416, whole entry: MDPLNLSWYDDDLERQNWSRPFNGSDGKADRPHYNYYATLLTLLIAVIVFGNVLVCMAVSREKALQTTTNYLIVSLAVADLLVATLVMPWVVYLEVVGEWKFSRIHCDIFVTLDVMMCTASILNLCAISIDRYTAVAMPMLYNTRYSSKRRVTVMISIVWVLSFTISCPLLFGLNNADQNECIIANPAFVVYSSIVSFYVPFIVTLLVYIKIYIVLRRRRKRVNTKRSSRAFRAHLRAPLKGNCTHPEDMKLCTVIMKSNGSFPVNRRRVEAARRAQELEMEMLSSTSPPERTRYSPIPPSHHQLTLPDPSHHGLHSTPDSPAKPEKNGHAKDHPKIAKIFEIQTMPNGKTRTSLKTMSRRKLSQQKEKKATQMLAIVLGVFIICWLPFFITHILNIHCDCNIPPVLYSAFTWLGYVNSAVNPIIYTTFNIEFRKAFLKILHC

The target in assay [1] is T1, D(2) dopamine receptor (Homo sapiens, UniProt P14416). The experiment in a line: biochemical. It is filed as cell-based, HEK293.
Assay [2] has as its target T1, D(2) dopamine receptor. In words: biochemical. It is filed as cell-based, HEK293. This is another data set of the same source.

pKi: −log10 of the molar value.

In the case of `CCCN1CCC[C@@H](c2cccc(O)c2)C1` [PRECLAMOL], the negative logarithm of the Ki (pKi) in assay [1] is 5.64; in assay [2], 7.76.
